Test results taken from US20220288223.

Key:
[1] = system: RACPP with substrate Nle-TPRSFL
[2] = system: RACPP with substrate PLGC(me)AG
[3] = system: RACPP with substrate TGRAAA
[4] = system: RACPP with substrate YGRAAA

Substance	Kcat/Km [1]	Kcat/Km [2]	Kcat/Km [3]	Kcat/Km [4]
Thrombin	670000			
uPA		1440	5580	834
